Test results taken from US9365601B2, “1,2-cyclohexanediaminplatinum(II)-bis-(4-methylbenzenesulfonate) and the hydrates thereof” (dated 2016).
Read-outs that look alike come from different tables or passages of the source.

What was measured:
[1] = solubility in water; settings: 25° C. and normal pressure
[2] = thermodynamic stability of the hydrates; settings: compared with the monohydrate
[3] = cited from earlier work
[4] = differential thermal analysis (DTA measurement), guideline VDI 2263; settings: closed glass ampoule filled with nitrogen
[5] = background, prior art (Schwartz et al.)

dihydrate of 1,2-cyclohexanediaminplatinum(II)-bis-(4-methylbenzenesulfonate)
solubility in water [1]: approx. 90 mg/ml
thermodynamic stability [2]: thermodynamically more stable than the monohydrate

dinitrato(1,2-diaminocyclohexane)platinum(II)
solubility in water [3, 5]: approx. 0.5 mg/ml
solubility in water ([3]; room temperature and normal pressure, prior art compound): approx. 0.5 mg/ml
heat tone ([4]; at start of exothermic behaviour, 3K/min): 1.175 J/g
start of exothermic behaviour ([4]; heating rate 3K/min, room temperature to 450° C., two samples): 170 °C

monohydrate of 1,2-cyclohexanediaminplatinum(II)-bis-(4-methylbenzenesulfonate)
solubility in water ([3]; 25° C. and normal pressure, known according to the prior art): approx. 3 mg/ml
solubility in water [3, 5]: 3000 µg/mL
